# Measured values as given in patent US7897627B2, “Heteroaryl derivatives as orexin receptor antagonists” (Hoffmann-La Roche Inc., priority 2007, dated 2011).
# Chains of the proteins cited; added tags and fusions are not shown.
# UniProt O43614, whole entry: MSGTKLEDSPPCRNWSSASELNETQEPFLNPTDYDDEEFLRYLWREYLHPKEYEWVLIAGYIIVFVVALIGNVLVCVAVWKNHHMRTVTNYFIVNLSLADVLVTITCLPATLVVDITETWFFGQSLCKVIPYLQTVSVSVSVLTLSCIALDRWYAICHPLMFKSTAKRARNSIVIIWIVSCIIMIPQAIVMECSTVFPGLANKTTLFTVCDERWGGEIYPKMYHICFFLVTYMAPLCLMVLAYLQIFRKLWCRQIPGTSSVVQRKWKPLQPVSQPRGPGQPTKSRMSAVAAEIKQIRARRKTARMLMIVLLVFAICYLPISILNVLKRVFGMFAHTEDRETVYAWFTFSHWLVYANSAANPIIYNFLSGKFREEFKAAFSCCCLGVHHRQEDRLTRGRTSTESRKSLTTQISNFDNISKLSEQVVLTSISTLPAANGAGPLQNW
# Target: human orexin-2 (hOX2) receptor (Homo sapiens, UniProt O43614)
# Assay: Intracellular Ca2+ mobilization assay (FLIPR), CHO(dHFr-) cells expressing hOX2, orexin-A as agonist
# Conditions: read-out: Kb (μM) OX2R (human), antagonist Kb=IC50/(1+[A]/EC50), orexin-A at EC80, antagonist applied 25 min before agonist
# Method: Intracellular Ca^2+ Mobilization Assay
# The Chinese Hamster Ovary (dHFr-) mutant cell line stably expressing human orexin-1 (hOX1) or human orexin-2 (hOX2) receptors were maintained in Dulbecco's Modified Eagle Medium (1×) with GlutaMax™1, 4500 mg/L D-Glucose and Sodium Pyruvate (Catalog No. 31966-021, Invitrogen, Carlsbad, Calif.), 5% dialyzed fetal calf serum (Catalog No. 26400-044), 100 μg/ml penicillin and 100 μg/ml streptomycin. The cells were seeded at 5×10^4 cells/well in the poly-D-lysine treated, 96-well, black/clear-bottomed plates (Catalog No. BD356640, BD Biosciences, Palo Alto, Calif.). […] The cells were washed five times with FLIPR buffer to remove excess dye and intracellular calcium mobilization, [Ca^2−]i were measured using a Fluorometric Imaging Plate Reader (FLIPR-96, Molecular Devices, Menlo Park, Calif.) as described previously (Malherbe et al., Mol. Pharmacol., 64, 823-832, 2003). […] The EC50 and EC80 values of orexin-A were measured daily from standard agonist concentration-response curves in CHO(dHFr-)-OX1R and -OX2R cell lines. […] Inhibition curves were determined by addition of 11 concentrations (0.0001-10 μM) of inhibitory compounds and using EC80 value of orexin-A as agonist (a concentration which gave 80% of max agonist response, determined daily). […]
row,SMILES,Kb
1,COc1cccc(OC)c1C(=O)N1CC[C@@H](Nc2nc3ccc(F)cc3s2)C1,0.0031 µM
2,COc1cccc(OC)c1C(=O)N1CC[C@@H](Nc2nc3cc(F)cc(F)c3s2)C1,0.0144 µM
